# Assay results taken from PMC6348443, “Synthesis, Biological, and Structural Explorations of New Zwitterionic Derivatives of 14-O-Methyloxymorphone, as Potent μ/δ Opioid Agonists and Peripherally Selective Antinociceptives” (Journal of Medicinal Chemistry, 2018).
# The chains behind the UniProt entries cited, without tags or fusion partners. Where a name states a change or a piece, a line headed by the entry shows the natural chain unless it says otherwise.
# UniProt P41144: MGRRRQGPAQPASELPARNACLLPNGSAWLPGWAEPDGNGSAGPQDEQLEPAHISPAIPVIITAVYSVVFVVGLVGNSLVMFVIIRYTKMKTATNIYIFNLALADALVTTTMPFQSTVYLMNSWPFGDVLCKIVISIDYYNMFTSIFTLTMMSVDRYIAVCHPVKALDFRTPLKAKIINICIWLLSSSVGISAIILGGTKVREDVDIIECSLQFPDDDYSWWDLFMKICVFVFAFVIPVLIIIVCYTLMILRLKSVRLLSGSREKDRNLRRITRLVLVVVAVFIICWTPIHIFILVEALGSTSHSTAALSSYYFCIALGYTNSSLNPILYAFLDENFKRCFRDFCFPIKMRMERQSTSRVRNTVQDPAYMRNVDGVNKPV
# UniProt P35372, whole entry: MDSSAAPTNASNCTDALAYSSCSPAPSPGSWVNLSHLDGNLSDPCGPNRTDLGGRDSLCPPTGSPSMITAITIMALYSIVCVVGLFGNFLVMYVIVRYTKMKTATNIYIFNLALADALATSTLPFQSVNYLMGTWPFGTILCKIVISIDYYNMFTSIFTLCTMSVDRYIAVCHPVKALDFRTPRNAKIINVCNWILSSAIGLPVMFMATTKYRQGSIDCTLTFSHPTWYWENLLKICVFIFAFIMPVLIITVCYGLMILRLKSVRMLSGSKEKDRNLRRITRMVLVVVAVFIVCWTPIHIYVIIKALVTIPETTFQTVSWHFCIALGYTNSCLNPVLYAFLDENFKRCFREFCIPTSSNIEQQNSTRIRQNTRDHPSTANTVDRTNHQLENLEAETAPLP
# UniProt P33535, whole entry: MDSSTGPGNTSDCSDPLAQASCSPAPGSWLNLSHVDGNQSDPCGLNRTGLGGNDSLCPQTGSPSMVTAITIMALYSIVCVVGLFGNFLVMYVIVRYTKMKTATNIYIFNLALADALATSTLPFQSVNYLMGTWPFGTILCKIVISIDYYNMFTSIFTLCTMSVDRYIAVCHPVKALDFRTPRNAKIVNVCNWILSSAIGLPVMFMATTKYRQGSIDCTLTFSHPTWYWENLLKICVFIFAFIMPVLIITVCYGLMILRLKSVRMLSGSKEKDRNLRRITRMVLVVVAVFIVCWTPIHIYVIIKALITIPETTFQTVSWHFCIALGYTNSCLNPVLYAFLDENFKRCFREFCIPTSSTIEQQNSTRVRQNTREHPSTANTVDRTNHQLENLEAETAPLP
# Counter-ions that a name gives are not always drawn.
# How the values were obtained:
# [1] = target: T1, KOR (Cavia porcellus, UniProt P41144); settings: guinea-pig brain membranes; read-out: opioid receptor binding Ki KOR; cited from earlier work
# T1 construct: Membranes were prepared from Sprague-Dawley rat brains or guinea-pig brains according to the described procedures; tissue Labortierkunde und Laborgenetik, Medizinische Universität Wien; host or cells: guinea-pig brain without cerebella
# [2] = target: T2, MOR (Homo sapiens, UniProt P35372); test: [35S]GTPγS binding assay, CHO-hMOR membranes; assay type: biochemical
# T2 construct: host or cells: CHO (CHO-hMOR)
# Procedure: Efficacies are presented as percentage stimulation relative to the standard full agonists, [D-Ala^2,N-Me-Phe4,Gly-ol^5]enkephalin (DAMGO for MOR),[53] [D-Pen^2,D-Pen^5]enkephalin (DPDPE for DOR)[54] and N-methyl-2-phenyl-N-[(5R,7S,8S)-7-(pyrrolidin-1-yl)-1-oxaspiro[4.5]dec-8-yl]acetamide (U69,593 for KOR).[55]
# Membranes from CHO cells expressing human opioid receptors were prepared in 50 mM Tris-HCl buffer (pH 7.7) according to a previously described procedure.[64] Cells expressing human opioid receptors grown at confluence were removed from the culture plates by scraping, homogenized in 50 mM Tris buffer (pH 7.7), using a Polytron homogenizer, then centrifuged once and washed by an additional centrifugation at 27 000g for 15 min, at 4 °C. The final pellet was resuspended in Tris buffer and stored at −80 °C until use. Protein content of brain and cell membrane preparation homogenates was determined by the method of Bradford using bovine serum albumin as the standard.[65]
# Binding of [^35S]GTPγS to membranes from CHO cells stably expressing the human opioid receptors was conducted according to the published procedures.[49],[64] Cell membranes (5–10 μg) in 20 mM HEPES, 10 mM MgCl2, and 100 mM NaCl (pH 7.4) were incubated with 0.05 nM [^35S]GTPγS, 10 μM GDP, and various concentrations of test compound in a final volume of 1 mL, for 60 min at 25 °C. Nonspecific binding was determined using 10 μM GTPγS, and the basal binding was determined in the absence of test ligand. Samples are filtered over glass Whatman glass GF/B fiber filters and counted as described for binding assays. All experiments were performed in duplicate and repeated at least three times.
# Data were analyzed and graphically processed using the GraphPad Prism 5.0 Software (GraphPad Prism Software Inc., San Diego, CA). For in vitro assays, inhibition constant (Ki in nM), potency (EC50 in nM), and efficacy (% stimulation) values were determined from concentration–response curves by nonlinear regression analysis. The Ki values were determined by the method of Cheng and Prusoff.[66] In the [^35S]GTPγS binding assays, efficacy was determined relative to the reference full opioid agonists, DAMGO (MOR), DPDPE (DOR), and U69,593 (KOR). In vitro data are presented as mean ± SEM of three to four independent experiments each performed in duplicate. […] Each experimental group included six to seven mice. Data were statistically evaluated using one-way ANOVA with Tukey’s post hoc test for multiple comparisons with significance set at P < 0.05.
# [3] = target: T2, MOR; test: competition radioligand binding, CHO cell membranes expressing human MOR, [3H]DAMGO
# [4] = target: T3, MOR (Rattus norvegicus, UniProt P33535); test: competition radioligand binding, rat brain membranes, [3H]DAMGO; settings: for Ki: rat brain membranes, read-out: opioid receptor binding Ki MOR
# T3 construct: Membranes were prepared from Sprague-Dawley rat brains or guinea-pig brains according to the described procedures; tissue Labortierkunde und Laborgenetik, Medizinische Universität Wien; host or cells: Sprague-Dawley rat brain without cerebella
smiles,measurement,setting,value
"CO[C@@]12CC[C@@H](NCC(=O)O)[C@@H]3Oc4c(O)ccc5c4[C@@]31CCN(C)[C@@H]2C5 [Compound 2b, 2-[(4,5α-Epoxy-3-Hydroxy-14β-Methoxy-17-Methylmorphinan-6β-yl)Amino]Acetic Acid]",Ki,[1],44.8 ± 0.1 nM
CO[C@@]12CC[C@H](NCC(=O)O)[C@@H]3Oc4c(O)ccc5c4[C@@]31CCN(C)[C@@H]2C5 [Compound 2a],Ki,[1],43.2 ± 7 nM
CO[C@@]12CC[C@@H](N[C@@H](C)C(=O)O)[C@@H]3Oc4c(O)ccc5c4[C@@]31CCN(C)[C@@H]2C5 [Compound 3b],EC50,[2],6.24 ± 0.79 nM
same,Ki,[3],2.01 ± 0.41 nM
"CO[C@@]12CC[C@@H](NC(C)C(=O)O)[C@@H]3Oc4c(O)ccc5c4[C@@]31CCN(C)[C@@H]2C5 (stereo in doubt) [Compound 15b, (2S)-2-[(4,5α-Epoxy-3-hydroxy-14β-methoxy-17-methylmorphinan-6β-yl)amino]propanoic Acid Dihydrochloride]",Ki,[4],1.48 ± 0.08 nM
same,EC50,[2],15.4 ± 8.4 nM
same,Ki,[3],1.61 ± 0.04 nM
"CO[C@@]12CC[C@H](NC(C)C(=O)O)[C@@H]3Oc4c(O)ccc5c4[C@@]31CCN(C)[C@@H]2C5 (stereo in doubt) [Compound 15a, (2S)-2-[(4,5α-Epoxy-3-hydroxy-14β-methoxy-17-methylmorphinan-6α-yl)amino]propanoic Acid Dihydrochloride]",Ki ratio MOR/DOR/KOR,"[4]; from Ki in rat (MOR, DOR) and guinea-pig (KOR) brain membranes",1/15/104
same,Ki,[4],0.69 ± 0.11 nM
same,EC50,[2],1.44 ± 0.49 nM
same,Ki,[3],0.68 ± 0.08 nM
CO[C@@]12CC[C@H](N[C@@H](C)C(=O)O)[C@@H]3Oc4c(O)ccc5c4[C@@]31CCN(C)[C@@H]2C5 [Compound 3a],Ki ratio MOR/DOR/KOR,[4]; from Ki data of ref 44,1/35/184
same,EC50,[2],1.34 ± 0.17 nM
same,Ki,[3],0.85 ± 0.06 nM
